# Reference: ChEMBL document CHEMBL1130012 (J Med Chem, 1997)
# Target: Muscarinic acetylcholine receptor M3 (Cavia porcellus, UniProt Q8VH26)
smiles,measurement,value
C[N+]1(C)CCC(OC(=O)[C@](O)(c2ccccc2)C2CCCCC2)CC1.[I-],Ki,0.09 nM
